The values below come from patent US20010053777A1, “Drug treatment for restless leg syndrome” (priority 1999, published 2001).

The series has as its system patients with RLS. As to the kind of experiment: Treatment of 2 patients with RLS: therapeutic history, monotherapy trials and combination therapy. The note with it: 2 RLS patients, previous therapy or monotherapy; dose-limiting or intolerable. The procedure: 2 patients with RLS (person and person) were treated with a combination therapy of pramipexole and clonidine.
The clonidine was also initially prescribed in a single dose of 0.075 mg two hours before bedtime and increased by 0.075 mg at intervals of 3 days.
2. Treatment with a combination therapy of clonidine and pramipexole After slowly bringing the clonidine therapy to a complete halt and after a treatment-free period of about 1 week, both patients were treated with a combination of 0.088 mg of pramipexole and 0.075 mg of clonidine. […] After 7 days the dosage of pramipexole had been increased to 0.18 mg and the dosage of clonidine to 0.15 mg, two hours before going to nd sleep.

Regarding bromocryptine, the side effects result is “nausea, gastrointestinal problems and dizziness”.
